# Measured values taken from BindingDB's records for doi:10.1021/acs.jmedchem.8b01296 (Daegu-Gyeongbuk Medical Innovation Foundation, 2019).
# Molecular target: T1, Steroid hormone receptor ERR2 (Homo sapiens, UniProt O95718)
# T1 sequence (O95718 whole entry): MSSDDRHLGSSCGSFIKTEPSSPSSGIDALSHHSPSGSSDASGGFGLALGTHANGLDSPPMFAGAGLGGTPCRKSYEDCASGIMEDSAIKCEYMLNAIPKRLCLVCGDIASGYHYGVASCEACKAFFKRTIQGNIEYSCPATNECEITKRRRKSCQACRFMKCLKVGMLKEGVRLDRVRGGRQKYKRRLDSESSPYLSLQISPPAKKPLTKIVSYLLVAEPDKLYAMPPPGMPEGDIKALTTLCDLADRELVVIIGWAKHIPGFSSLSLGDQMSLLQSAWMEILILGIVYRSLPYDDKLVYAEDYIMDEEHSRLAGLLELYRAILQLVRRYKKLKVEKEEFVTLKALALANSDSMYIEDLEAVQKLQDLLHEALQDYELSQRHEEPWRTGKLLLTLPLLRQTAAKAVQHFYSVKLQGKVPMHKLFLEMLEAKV
# Assay: Binding affinity to ERRbeta (unknown origin) using fluorescein-conjugated coactivator PGC-1alpha incubated for 1 hr by TR-FRET assay
structure (smiles),measurement,value
CN(C)CCOc1ccc(/C(=C(/CCCO)c2ccccc2)c2ccc(O)cc2)cc1 [4-[(1Z)-1-{4-[2-(dimethylamino)ethoxy]phenyl}-5-hydroxy-2-phenylpent-1-en-1-yl]phenol],IC50,> 10 µM
